pIC50: −log10 of the molar value.
Molecular target: Adenosine kinase (Homo sapiens, UniProt P55263)
Assay: Inhibition of adenosine kinase

A pIC50 of 8.82 was found for `C[C@H]1O[C@@H](n2cc(-c3ccccc3)c3c(Nc4ccc(F)cc4)ncnc32)[C@H](O)[C@@H]1O` (single isomer, unassigned) in this work.
